These are literature values, as cited in US20240174671A1, “New 2,3-Dihydro-1H-pyrrolo[3,2-b]pyridine Derivatives as Sigma Ligands” (ACONDICIONAMIENTO TARRASENSE, priority 2021, published 2024).

Chains of the proteins cited; added tags and fusions are not shown.
UniProt Q99720, whole entry: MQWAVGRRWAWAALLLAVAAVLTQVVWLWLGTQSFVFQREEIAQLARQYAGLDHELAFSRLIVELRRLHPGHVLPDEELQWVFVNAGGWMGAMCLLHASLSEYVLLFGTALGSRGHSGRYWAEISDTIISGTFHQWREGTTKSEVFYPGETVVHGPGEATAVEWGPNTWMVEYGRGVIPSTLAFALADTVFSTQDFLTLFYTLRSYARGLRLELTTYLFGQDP

This series addresses sigma-1 (σ1) site (Homo sapiens, UniProt Q99720). Conditions: background statement; cited from earlier work.

For the substance (+)-SKF-10047, the “affinity for the sigma-1 (σ1) site” value is given as “nanomolar affinity”.
